The record followed here is patent publication US12502351B2, “Receptor targeting constructs and uses thereof” (Cedars-Sinai Medical Center, priority 2014, dated 2025).

This series concerns tumors. The experiment in a line: Biodistribution in tumor-bearing mice, Xenogen imaging. The class given is in vivo, mouse. The conditions noted are these: 12 nmol, tail vein. An excerpt:
Xenogen imaging and quantification of Alexa680-labeled […] (Tz) and BSA (12 nmol ea) after tail vein injection.

trastuzumab: the “distribution to the brain” value is “in contrast”.
